Chains of the proteins cited; added tags and fusions are not shown. Lines headed by an entry give the natural chain unless they say otherwise; changes in a name come on top.
UniProt P41146: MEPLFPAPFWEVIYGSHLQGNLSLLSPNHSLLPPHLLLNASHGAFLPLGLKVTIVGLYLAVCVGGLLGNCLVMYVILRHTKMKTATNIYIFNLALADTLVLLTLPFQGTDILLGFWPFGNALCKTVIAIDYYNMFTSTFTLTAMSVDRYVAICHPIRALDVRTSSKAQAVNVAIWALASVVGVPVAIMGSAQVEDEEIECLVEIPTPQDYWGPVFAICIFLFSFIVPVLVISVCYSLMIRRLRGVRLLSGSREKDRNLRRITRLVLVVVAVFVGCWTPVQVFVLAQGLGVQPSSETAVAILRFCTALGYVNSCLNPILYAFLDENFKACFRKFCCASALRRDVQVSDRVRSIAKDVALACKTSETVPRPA
UniProt P41143, whole entry, looked up: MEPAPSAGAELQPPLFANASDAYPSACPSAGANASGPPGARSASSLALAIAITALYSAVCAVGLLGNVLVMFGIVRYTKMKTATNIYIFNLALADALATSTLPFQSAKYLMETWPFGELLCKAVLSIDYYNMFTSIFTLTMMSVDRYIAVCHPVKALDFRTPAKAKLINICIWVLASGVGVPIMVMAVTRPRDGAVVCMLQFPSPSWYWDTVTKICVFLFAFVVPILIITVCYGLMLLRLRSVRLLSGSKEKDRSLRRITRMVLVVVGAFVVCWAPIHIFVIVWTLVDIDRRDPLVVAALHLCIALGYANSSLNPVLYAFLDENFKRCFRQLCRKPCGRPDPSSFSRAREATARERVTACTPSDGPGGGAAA
UniProt P41145: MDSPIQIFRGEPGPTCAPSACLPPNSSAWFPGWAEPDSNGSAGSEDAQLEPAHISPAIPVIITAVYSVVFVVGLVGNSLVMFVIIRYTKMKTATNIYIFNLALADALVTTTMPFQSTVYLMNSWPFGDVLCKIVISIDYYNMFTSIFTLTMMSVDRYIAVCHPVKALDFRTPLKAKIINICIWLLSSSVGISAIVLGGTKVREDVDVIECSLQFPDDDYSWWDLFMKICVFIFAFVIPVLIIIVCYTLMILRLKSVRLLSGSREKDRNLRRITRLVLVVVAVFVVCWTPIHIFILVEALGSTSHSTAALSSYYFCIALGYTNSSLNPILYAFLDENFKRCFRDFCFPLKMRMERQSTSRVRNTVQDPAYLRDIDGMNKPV
UniProt P35372, whole entry, looked up: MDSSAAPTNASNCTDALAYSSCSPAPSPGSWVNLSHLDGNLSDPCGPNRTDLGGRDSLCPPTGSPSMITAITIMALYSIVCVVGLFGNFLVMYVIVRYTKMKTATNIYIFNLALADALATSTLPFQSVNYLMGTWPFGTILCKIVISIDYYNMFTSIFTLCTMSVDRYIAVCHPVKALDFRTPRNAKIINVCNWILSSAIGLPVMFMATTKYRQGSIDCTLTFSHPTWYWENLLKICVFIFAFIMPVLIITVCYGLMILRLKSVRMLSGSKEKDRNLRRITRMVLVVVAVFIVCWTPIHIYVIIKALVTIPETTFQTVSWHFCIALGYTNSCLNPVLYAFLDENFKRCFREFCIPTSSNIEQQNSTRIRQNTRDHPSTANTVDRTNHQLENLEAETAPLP

According to ChEMBL document CHEMBL1147615, “Design and synthesis of novel small molecule N/OFQ receptor antagonists” (2004):

Legend:
Nociceptin receptor = Nociceptin receptor (Homo sapiens, UniProt P41146); test: Binding affinity towards Nociceptin/orphanin FQ (N/OFQ) receptor from recombinant HEK293 cell membranes was determined using binding assay
[1] = biological target: Delta-type opioid receptor (Homo sapiens, UniProt P41143); test: Tested for the opioid receptor delta 1 binding affinity using membrane preparations from recombinant HEK293 cells with [3H]naltrindole radioligand
[2] = biological target: Kappa-type opioid receptor (Homo sapiens, UniProt P41145); test: Tested for the opioid receptor kappa 1 binding affinity using membrane preparations from recombinant HEK293 cells with [3H]U-69593 radioligand
Mu-type opioid receptor = Mu-type opioid receptor (Homo sapiens, UniProt P35372); test: Binding affinity towards opioid receptor mu 1 using [3H]- diprenophine as radioligand from membrane preparations of recombinant HEK293 cells

Structure (SMILES)	Ki (Nociceptin receptor) [nM]	Ki [1] [nM]	Ki [2] [nM]	Ki (Mu-type opioid receptor) [nM]
CC(C)C1CCC(N2CCC(N3C(=O)N[C@@H]4CCCC[C@H]43)CC2)CC1 (stereo partly drawn)	39	> 10000	6210	959
CCN1C(=O)N(C2CCN(C3CCC4CCCCC4C3)CC2)[C@@H]2CCCC[C@H]21 (stereo partly drawn)	–	–	> 10000	–
CC(C)CCC(C)N1CCC(N2C(=O)N[C@@H]3CCCC[C@H]32)CC1 (stereo partly drawn)	414	–	–	426
O=C1N[C@@H]2CCCC[C@H]2N1C1CCN(Cc2ccccc2)CC1	1050	–	–	–
O=C1N[C@@H]2CCCC[C@H]2N1C1CCN(C2CCCCCCC2)CC1	125	–	–	1400
O=C1N[C@@H]2CCCC[C@H]2N1C1CCN(CC2CCCCCCC2)CC1	16	6530	1700	1070
O=C1N[C@@H]2CCCC[C@H]2N1C1CCN(CCC(c2ccccc2)c2ccccc2)CC1	437	–	–	27
CCN1C(=O)N(C2CCN(C(C)CCC(C)C)CC2)[C@@H]2CCCC[C@H]21 (stereo partly drawn)	410	–	–	395
CCCC1CCC(N2CCC(N3C(=O)N(CC)[C@@H]4CCCC[C@H]43)CC2)CC1 (stereo partly drawn)	1240	–	–	2170
CCN1C(=O)N(C2CCN(Cc3ccc4ccccc4c3)CC2)[C@@H]2CCCC[C@H]21	824	–	–	199
CCN1C(=O)N(C2CCN(CC3CCCCCCC3)CC2)[C@@H]2CCCC[C@H]21	11	> 10000	> 10000	448
CCN1C(=O)N(C2CCN(Cc3ccccc3)CC2)[C@@H]2CCCC[C@H]21	692	–	–	716
CCN1C(=O)N(C2CCN(C3CCC(C(C)C)CC3)CC2)[C@@H]2CCCC[C@H]21 (stereo partly drawn)	89	> 10000	> 10000	421
CCN1C(=O)N(C2CCN(CCC(c3ccccc3)c3ccccc3)CC2)[C@@H]2CCCC[C@H]21	4360	–	–	267
O=C1N[C@@H]2CCCC[C@H]2N1C1CCN(C2CCC3CCCCC3C2)CC1 (stereo partly drawn)	51	> 10000	1390	208
